Molecules are shown by their SMILES. Values joined by “and” are separate entries in the source; they are usually repeats but may differ in a detail not shown here. Equal values may be shown once.

Data set [1] relates to MIN6 mouse model of pancreatic β-cells. The settings on record: 24 h, 160 μM. The method, then:
The stock solutions were diluted with FBS-free DMEM and sonicated continuously for 5 min at 75% amplitude before use. FBS was subsequently added to a concentration of 15% (v/v), giving final amylin concentrations of 40, 80, and 160 μM. The final DMSO concentration for all cytotoxicity experiments was 1% (v/v).
Cytotoxicity was measured using the mouse insulinoma 6 (MIN6) cell line model of β-pancreatic cells, which were a gift from Dr. Anil Rustgi (University of Pennsylvania). Cells were seeded at a density of 20,000 per 100 μL in black clear-bottom 96-well plates. The cells were grown in DMEM with 15% FBS, 25 mM glucose, 2 mM L-glutamine, […] sodium pyruvate, 55 μM β-mercaptoethanol, 1000 units/mL penicillin, and 100 μg/mL streptomycin, for 20 h at 37°C in a humidified incubator with 5% CO2. […] The cells were incubated for another 24 h followed by the addition of 10% (v/v) of the redox indicator dye Alamar Blue at the concentration supplied by the manufacturer (Invitrogen). Fluorescence, due to the reduction of Alamar Blue by viable cells, was measured after 6 h, using excitation and emission wavelengths of 544 and 590 nm, respectively. Cell viability was calculated from the ratio of Alamar Blue fluorescence in treated to untreated cells. Uncertainties were calculated as the SEMs of triplicate measurements.

On the set-up of data set [2]: method as in 2 sources, ref 21 = [21]; PMID 23016872; doi:10.1021/bi300574r; 21 Marek P. J. Patsalo V. Green D. F. Raleigh D. P. Ionic strength effects on amyloid formation by amylin are a complicated interplay among debye screening, ion selectivity, and hofmeister effects Bio ||| ref 7 = [7]; PMID 22206987; doi:10.1016/j.jmb.2011.12.032; 7 Cao P. Tu L.-H. Abedini A. Sensitivity of amyloid formation by human islet amyloid polypeptide to mutations at residue 20 Journal of Molecular Biology 2012 421 2-3 282 295 10.1016/j.jmb.2011.12.032. The settings on record: absence of inhibitors; cited from earlier work. An excerpt: In type 2 diabetes, the positively charged 37-residue hormone amylin misfolds into cationic fibrils which have been implicated in the destruction of the pancreatic β-cells that make insulin and amylin, thus contributing to pathology. Amylin is a particularly favorable system for investigating the roles of charges in fibrillization, since the core of the intermolecular β-sheet fibril structure has only one pH-titratable group, His18 [9].

Data set [3] is described as follows: ThT assay of fibrillization kinetics, peptides alone. Format: physicochemical. To be noted: 20 μM peptide, 150 mM NaCl. The procedure: The time course of fibrillization in solution was monitored using 100–200 μL amylin samples, contained in white polystyrene clear bottom 96-well plates (Corning Inc., Corning, NY). Plates were covered with a clear polyester sealing tape (Fisher Scientific, Agawam, MA) to prevent evaporation. Stock solutions of 1.1 mM WT-amylin and inhibitor peptides were prepared in 100% DMSO, which dissolves and disaggregates amylin fibrils, and were stored at −80°C when not in use. Starting from the 1.1 mM stock solutions in 100% DMSO, samples for fibrillization reactions were prepared to contain 20 μM amylin and 10 μM ultrapure ThT, in 20 mM sodium phosphate buffer, pH 7.4, and a final DMSO concentration of 2% (v/v). For experiments using larger 400 μM concentrations of Arg-2 and Mem-T, the solutions were prepared by diluting 100% DMSO stock solutions of 20 mM peptide to a final DMSO concentration of 2% (v/v). Amylin was the last component added to the samples for the kinetic reactions, in order to reduce the dead time for the experiments. The plates were incubated at 25°C without agitation. Fluorescence intensity was recorded at 2 min intervals with excitation at 440 nm and emission at 490 nm on a Fluoroskan Ascent 2.5 fluorescence plate reader. Fibrillization reactions for the peptides alone were performed in triplicate and for analog-peptide inhibition of WT-amylin in duplicate, to estimate experimental uncertainties in kinetic parameters.

Data set [4] in a line: TEM of aggregates formed by peptides alone. The class given is physicochemical. The settings on record: 80 μM peptide, 2 days, 20 mM phosphate pH 7.4, 37°C, no agitation. The procedure:
Samples containing 80 μM concentrations of WT-amylin and the three analogs were incubated without agitation at a temperature of 37°C in 20 mM phosphate buffer (pH 7.4). For the inhibition reactions, samples contained WT-amylin at an 80 μM concentration, together with 160 μM of Arg-1, Arg-2, or Mem-T analogs. Aliquots from the reactions were removed after 2 days for TEM imaging. The aliquots were blotted onto carbon-coated 400-mesh Maxtaform copper grids (Ted Pella Inc. Redding, CA) for 1–3 min, followed by negative staining with 1% uranyl acetate. TEM images were recorded on an FEI Tecnai G^2 Spirit BioTwin transmission electron microscope equipped with an AMT XR-40 camera.

For `CC[C@H](C)[C@H](NC(=O)[C@H](C)NC(=O)CNC(=O)[C@H](Cc1ccccc1)NC(=O)[C@H](CC(N)=O)NC(=O)[C@H](CC(N)=O)NC(=O)[C@H](CO)NC(=O)[C@H](CO)NC(=O)[C@H](Cc1c[nH]cn1)NC(=O)[C@@H](NC(=O)[C@H](CC(C)C)NC(=O)[C@H](Cc1ccccc1)NC(=O)[C@H](CC(N)=O)NC(=O)[C@H](C)NC(=O)[C@H](CC(C)C)NC(=O)[C@H](CCCNC(=N)N)NC(=O)[C@H](CCC(N)=O)NC(=O)[C@@H](NC(=O)[C@H](C)NC(=O)[C@@H]1CSSC[C@H](NC(=O)[C@@H](N)CCCCN)C(=O)N[C@@H](CC(N)=O)C(=O)N[C@@H]([C@@H](C)O)C(=O)N[C@@H](C)C(=O)N[C@@H]([C@@H](C)O)C(=O)N1)[C@@H](C)O)C(C)C)C(=O)N[C@@H](CC(C)C)C(=O)N[C@@H](CO)C(=O)N[C@@H](CO)C(=O)N[C@H](C(=O)N[C@@H](CC(N)=O)C(=O)N[C@H](C(=O)NCC(=O)N[C@@H](CO)C(=O)N[C@@H](CC(N)=O)C(=O)N[C@H](C(=O)N[C@@H](Cc1ccc(O)cc1)C(N)=O)[C@@H](C)O)C(C)C)[C@@H](C)O` [WT-amylin, reference compound], in data set [1], the cell viability result is “about 45%”. Moreover, the “effect of ionic strength on fibrillization” value in data set [2] is “enhanced with increasing ionic strength”. The “fibrillization detected (ThT)” value in data set [3] (pH 7.4, 25°C) is on record as “detect fibrillization”. In data set [3] (20 mM sodium phosphate pH 7.4, 10 μM ThT, 2% DMSO, 25°C, no agitation, fluorescence ex 440/em 490 nm, triplicate), this compound yielded a fibrillization lag time of 120 min. Moreover, in data set [3] (20 mM sodium phosphate pH 7.4, 10 μM ThT, 2% DMSO, 25°C, no agitation, triplicate), the fibril elongation rate is 0.010 min⁻¹ and 0.0100 ± 0.0001 min⁻¹. In data set [4], the “aggregate morphology by TEM” value is given as “formed large amounts of fibrils”.

The values are drawn from PMC4630399, “Charge-Based Inhibitors of Amylin Fibrillization and Toxicity” (Journal of Diabetes Research, 2015).
